This test deals with T1, Bifunctional dihydrofolate reductase-thymidylate synthase (Toxoplasma gondii, UniProt Q07422).
T1 sequence (Q07422 whole entry): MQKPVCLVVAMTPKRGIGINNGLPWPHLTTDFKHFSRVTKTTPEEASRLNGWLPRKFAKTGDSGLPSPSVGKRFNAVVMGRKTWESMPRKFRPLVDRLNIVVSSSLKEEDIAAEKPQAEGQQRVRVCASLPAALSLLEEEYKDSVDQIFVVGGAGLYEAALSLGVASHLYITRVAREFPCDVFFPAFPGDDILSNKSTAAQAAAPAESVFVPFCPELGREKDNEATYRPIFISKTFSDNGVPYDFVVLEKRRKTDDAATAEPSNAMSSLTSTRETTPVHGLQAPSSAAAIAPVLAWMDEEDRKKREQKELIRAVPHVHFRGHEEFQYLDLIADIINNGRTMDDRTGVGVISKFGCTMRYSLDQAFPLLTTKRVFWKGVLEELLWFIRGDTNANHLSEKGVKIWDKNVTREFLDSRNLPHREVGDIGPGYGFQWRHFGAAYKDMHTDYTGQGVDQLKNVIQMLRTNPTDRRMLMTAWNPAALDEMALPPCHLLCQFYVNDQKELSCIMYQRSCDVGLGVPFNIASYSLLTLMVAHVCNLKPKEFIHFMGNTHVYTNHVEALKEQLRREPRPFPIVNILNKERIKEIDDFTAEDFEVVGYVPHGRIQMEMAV
The test can be described thus: Inhibition of Toxoplasma gondii dihydrofolate reductase.

As to `Nc1nc(N)c2c(CSc3ccc4ccccc4c3)coc2n1`, the IC50 (commonly the point on the concentration scale where inhibition reaches its midpoint) was 32.4 µM. This counts as double-digit micromolar.

Source of the values: ChEMBL document CHEMBL1145190, “CoMFA and CoMSIA analyses of Pneumocystis carinii dihydrofolate reductase, Toxoplasma gondii dihydrofolate reductase, and rat liver dihydrofolate reductase” (J Med Chem, 2005).
